Values quoted from earlier work as cited in patent US20210379148A1, “REGULATING MUSCLE PHYSIOLOGY AND ENERGY METABOLISM USING CRYM” (University Of Maryland, Baltimore, priority 2020, published 2021).

Test system: CRYM mRNA

SMILES: CC[C@@]1(O)C(=O)OCc2c1cc1n(c2=O)Cc2cc3c(CN(C)C)c(O)ccc3nc2-1 [Topotecan]
- expression of CRYM mRNA: [Oxaliplatin co-treated with Topotecan] results in increased
